{"sequences": {"note": "By UniProt entry, the sequences of proteins in these tests, tags left out. Residues count along the entry.", "UniProt P01008, 33-464, species assumed": "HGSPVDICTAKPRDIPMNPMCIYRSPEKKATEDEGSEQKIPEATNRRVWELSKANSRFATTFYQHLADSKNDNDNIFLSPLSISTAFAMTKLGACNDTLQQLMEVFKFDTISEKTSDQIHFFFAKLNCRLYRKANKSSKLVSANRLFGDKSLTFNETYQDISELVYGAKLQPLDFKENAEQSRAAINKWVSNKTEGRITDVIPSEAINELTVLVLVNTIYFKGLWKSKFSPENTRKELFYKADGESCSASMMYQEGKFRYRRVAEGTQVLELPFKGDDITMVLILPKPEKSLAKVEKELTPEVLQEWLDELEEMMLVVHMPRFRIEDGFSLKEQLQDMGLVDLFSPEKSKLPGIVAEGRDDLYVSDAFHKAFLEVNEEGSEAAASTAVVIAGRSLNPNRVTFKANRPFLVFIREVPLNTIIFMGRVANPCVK"}, "source": "patent US9410137B2", "about": "“Compositions and methods for modulating hemostasis” (The Children's Hospital of Philadelphia, priority 2005, dated 2016)", "key": {"[1]": {"experiment": "FXa chromogenic activity of rFX variants after activation with RVV-X", "type": "biochemical", "procedure": "The FX mutants were generated using the Quick-change site-directed mutagenesis kit (Stratagene) and the entire FX cDNA was sequenced to verify the identity of the product. The various plasmids were transiently transfected into HEK 293 cells using Lipofectamine-2000. 48 hr post-transfection, media was collected and FX antigen levels were determine using a FX-specific ELISA and FXa activity was assessed by chromogenic assay prior to activation by RVV-X or by tissue factor-FVIIa."}, "[2]": {"experiment": "Kinetic constants for chromogenic substrate cleavage (free factor Xa or prothrombinase)", "type": "biochemical", "conditions": "for Km: read-out: Km ± SD", "excerpt": "(§1) Enzyme concentrations will be determined by active-site titration with ρ-nitrophenyl ρ-guanidinobenzoate (IIa) or fluorescein mono-ρ-guanidinobenzoate (FXa) (26, 27). FXa chromogenic substrate activity, in the presence or absence of various inhibitors, will be measured from initial rates of hydrolysis of Spectrozyme FXa, S-2222, or S-2765 as previously described (14). Kinetic parameters will be determined by least-squares fitting of the initial rate data to appropriate equations."}, "Antithrombin III": {"target": "Antithrombin III (Homo sapiens, UniProt P01008)", "experiment": "Inhibition of FXa and prothrombinase by Antithrombin III", "type": "biochemical", "excerpt": "as §1"}, "FVa": {"target": "T1, FVa (Homo sapiens, UniProt P12259)", "T1 sequence (P12259 29-737 limits assumed)": "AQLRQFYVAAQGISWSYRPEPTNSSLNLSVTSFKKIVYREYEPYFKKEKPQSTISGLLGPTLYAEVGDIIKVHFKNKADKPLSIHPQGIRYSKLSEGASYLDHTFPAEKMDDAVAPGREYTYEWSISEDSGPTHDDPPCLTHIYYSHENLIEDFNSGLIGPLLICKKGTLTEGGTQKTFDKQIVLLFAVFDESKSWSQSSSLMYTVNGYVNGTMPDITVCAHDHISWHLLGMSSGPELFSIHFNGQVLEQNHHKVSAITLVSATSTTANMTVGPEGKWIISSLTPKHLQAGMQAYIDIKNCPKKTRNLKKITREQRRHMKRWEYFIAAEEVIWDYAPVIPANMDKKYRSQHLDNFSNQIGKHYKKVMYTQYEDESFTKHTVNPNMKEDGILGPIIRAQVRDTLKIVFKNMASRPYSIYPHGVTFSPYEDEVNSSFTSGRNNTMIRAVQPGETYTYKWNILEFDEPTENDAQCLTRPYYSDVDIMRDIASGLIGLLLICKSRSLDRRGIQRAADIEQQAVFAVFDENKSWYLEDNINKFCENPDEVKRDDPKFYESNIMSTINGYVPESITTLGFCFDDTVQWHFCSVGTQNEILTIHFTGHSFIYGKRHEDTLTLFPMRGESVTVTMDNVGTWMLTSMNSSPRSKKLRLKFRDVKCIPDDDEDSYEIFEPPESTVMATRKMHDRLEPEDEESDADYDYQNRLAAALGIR", "T1 sequence (P12259 1574-2224 limits assumed)": "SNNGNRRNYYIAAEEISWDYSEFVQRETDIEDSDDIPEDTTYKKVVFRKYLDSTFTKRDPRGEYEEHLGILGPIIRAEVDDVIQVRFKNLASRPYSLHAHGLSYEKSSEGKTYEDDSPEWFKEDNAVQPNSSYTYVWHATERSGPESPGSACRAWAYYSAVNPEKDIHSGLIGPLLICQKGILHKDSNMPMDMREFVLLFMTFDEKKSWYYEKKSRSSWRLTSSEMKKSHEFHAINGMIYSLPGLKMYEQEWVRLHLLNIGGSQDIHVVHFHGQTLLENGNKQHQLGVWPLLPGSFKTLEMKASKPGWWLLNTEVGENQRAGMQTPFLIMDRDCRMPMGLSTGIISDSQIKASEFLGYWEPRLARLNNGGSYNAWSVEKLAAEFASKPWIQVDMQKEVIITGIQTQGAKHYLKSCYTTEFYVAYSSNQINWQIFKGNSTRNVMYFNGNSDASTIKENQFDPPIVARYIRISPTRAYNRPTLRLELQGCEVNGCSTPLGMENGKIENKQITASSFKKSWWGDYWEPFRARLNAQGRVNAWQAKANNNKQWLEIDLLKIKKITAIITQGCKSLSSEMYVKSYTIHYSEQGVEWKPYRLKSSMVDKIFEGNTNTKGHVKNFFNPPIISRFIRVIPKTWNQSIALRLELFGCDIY", "experiment": "Equilibrium binding for prothrombinase assembly (displacement of fluorescent inactive wtFXa from FVa-membranes)", "conditions": "FVa-membranes, competition with fluorescent inactive wtFXa"}, "hemophilia B plasma": {"system": "hemophilia B plasma", "experiment": "Half-life of FXa activity in hemophilia B plasma (aPTT-based assay)", "type": "in vitro ADME", "conditions": "2 nM", "procedure": "FIG. 6. Factor Xa activity in hemophilia B plasma. Wild-type FXa or FXaI16L (2 nM) were added to hemophilia B plasma and at select time intervals the samples were diluted (0.1 nM) and assayed in an aPTT clotting assay.\nBased on the observation that the zymogen-like FXa derivatives have poor reactivity with active-site directed probes and inhibitors in the absence of FVa, but apparently near normal activity when the variants are assembled in prothrombinase, we next evaluated the activity of FXaI16L (FXaI235L) in a plasma environment. Hemophilic A (data not shown) or B plasma was spiked with wild-type FXa to correct the clotting time (aPTT) of these plasmas; 0.1 nM wtFXa gave a clotting time of ˜32 sec. […] Next we monitored the half-life of wild-type FXa and FXaI16L (FXaI235L) in hemophilia B plasma. The proteins were added to HB plasma and at different time points, an aliquot of the mixture was withdrawn and assayed in an aPTT-based assay. […] Similar results were found with hemophilia A plasma."}, "[3]": {"system": "hemophilia B mice (C57BL/6)", "experiment": "Correction of the aPTT in hemophilia B mice", "type": "in vivo", "conditions": "200 μg/kg via tail vein; 5 and 30 min post-injection", "procedure": "FIG. 7. Correction of the aPTT. Factor Xa-116L (200 μg/kg; n=7 mice) or PBS (n=4 mice) were injected into hemophilia B mice (C57BL/6) via the tail vein. At 5 and 30 min post-injection, blood was collected and an aPTT assay was performed. The red dotted line represents the aPTT value of normal C57B1/6 animals.\nWe next evaluated the ability of zymogen-like FXaI16L (FXaI235L) to modulate hemostasis in a murine model of hemophilia (Schlachterman, et. al., 2005, J. Thromb. Haemost., 3, 2730-2737). The aPTT value of hemophilia B mice (C57BL/6) is approximately 50-55 sec. Factor XaI16L (200 μg/kg; n=7) or PBS (n=4) were injected via the tail vein of hemophilia B mice. At selected time points (5 and 30 min) blood was collected and an aPTT was performed on all samples. […] Infusion of PBS had only a marginal effect."}, "[4]": {"conditions": "Prothrombinase, 5.0 nM FXa, 30 nM factor Va, 50 μM PCPS"}}, "note": "Where two headings read alike, the source gives them in different places.", "data": [{"substance": "rFXa^I16L: factor X/Xa variant, Ile16 (position 235 in SEQ ID NO: 1) replaced by Leu", "values": [{"measurement": "FXa Activity", "setting": "[1]; activation of FX with RVV-X, compared to FXa standard curve", "value": 0.25, "unit": "nM"}, {"measurement": "% wt (FXa activity)", "setting": "[1]; activation with RVV-X, adjusted for antigen levels", "value": 5.00, "unit": "%"}, {"measurement": "kcat ± SD", "setting": "[2]; [4]", "value": "32.5 ± 3.1", "unit": "s⁻¹"}, {"measurement": "Km", "setting": "[2]; [4]", "value": "296 ± 54", "unit": "µM"}, {"measurement": "Km for peptidyl substrates", "setting": "[2]; assembled into prothrombinase", "value": "almost completely restored"}, {"measurement": "kcat reduced", "setting": "[2]; assembled into prothrombinase, compared to wild-type FXa", "value": 3, "unit": "fold"}, {"measurement": "rate of catalysis (kcat) reduced", "setting": "[2]; free FXa, compared to wild-type FXa (plasma-derived and recombinant)", "value": 3, "unit": "fold"}, {"measurement": "kcat ± SD", "setting": "[2]; free Factor Xa", "value": "57.3 ± 3.1", "unit": "s⁻¹"}, {"measurement": "Km", "setting": "[2]; free Factor Xa, 2.0 nM wild-type or 6.0 nM mutant", "value": "1150 ± 244", "unit": "µM"}, {"measurement": "k2 ± SD Antithrombin III", "setting": "Antithrombin III; Prothrombinase", "value": "0.09 ± 0.003", "unit": "M^−1 s^−1 × 10^3"}, {"measurement": "k2 ± SD Antithrombin III", "setting": "Antithrombin III; free Factor Xa", "value": "0.06 ± 0.001", "unit": "M^−1 s^−1 × 10^3"}, {"measurement": "affinity for FVa", "setting": "FVa", "value": "significantly reduced compared to FXaS195A"}, {"measurement": "estimated half-life", "setting": "hemophilia B plasma", "value": "> 2", "unit": "h"}, {"measurement": "correction of the aPTT", "setting": "[3]", "value": "complete correction of the aPTT to levels seen in normal animals"}]}]}
